Patent publication US10722444B2, “Stable hydrogel compositions including additives” (Allergan Industrie, SAS, priority 2014, dated 2020)

Test: Autoclaving stability of HA-based gel with additive (pH, extrusion force, rheology, appearance)
Assay type: physicochemical
Settings: for appearance of the gel / ΔTan δ / ΔpH: catechin 0.1% of commercial solution in HA-based gel matrix at 24 mg/g containing 5% uncrosslinked HA; for ΔTan δ / ΔpH: gel with additive minus gel without
Protocol: Stability of a hydrogel composition disclosed herein can be determined by subjecting a hydrogel composition to a heat treatment, such as, e.g., steam sterilization at normal pressure or under pressure (e.g., autoclaving). Preferably the heat treatment is carried out at a temperature of at least about 100° C. for between about one minute and about 15 minutes. Substantial stability of a hydrogel composition disclosed herein can be evaluated 1) by determining the change in the extrusion force (ΔF) of a hydrogel composition disclosed herein after sterilization, where the change in extrusion force less 2N is indicative of a substantially stable hydrogel composition as measured by (the extrusion force of a hydrogel composition with the specified additives) minus (the extrusion force of the a hydrogel composition without the added additives); and/or 2) by determining the change in rheological properties of a hydrogel composition disclosed herein after sterilization, where the change in tan δ 1 Hz of less than 0.1 is indicative of a substantially stable hydrogel composition as measured by Δ Tan δ 1 Hz=(tan δ 1 Hz of gel formulation with additives) minus (tan δ 1 Hz of gel formulation without additives). As such, a substantially stable hydrogel composition disclosed herein retains one or more of the following characteristics after sterilization: homogeneousness, extrusion force, cohesiveness, hyaluronan concentration, agent(s) concentration, osmolarity, pH, or other rheological characteristics such as tan δ.
Reminder for stability assessment with extrusion force: ΔF (F gel with additive −F gel without additive)<2N
Reminder for stability assessment with rheology: ΔTan δ (Tan δ 1 Hz gel with additive −Tan δ 1 Hz gel without additive)<0.1
Caffeic acid, at a concentration of 0.6%,(w/w), was incorporated into a HA-based gel matrix at 24 mg/g containing 5% of uncrosslinked HA. The gel formulated was autoclaved.
Inoveol® CAFA (supplied by Libragen), (INCI name: Aqua (and) Caffeyl Glucoside), a derivative of caffeic acid, at a concentration of 0.5% (w/w) of commercial solution, was incorporated into a HA-based gel matrix containing a viscoelastic portion. The gel formulated was autoclaved.
Catechin, at a concentration of 0.1% of commercial solution, was incorporated into a HA-based gel matrix at 24 mg/g containing 5% of uncrosslinked HA. The gel formulated was autoclaved.
Inoveol EGCG (supplied by Libragen), (INCI Name: Epigallocatechin Gallatyl Glucoside), a derivative of catechin, at a concentration of 0.5% of commercial solution, was incorporated into a HA-based gel matrix containing viscoelastic portion. The gel formulated was autoclaved.

Substance: Catechin
- appearance of the gel (after autoclaving): clear with orange color
- ΔTan δ (after autoclaving): 0.162
- ΔpH (after autoclaving): −0.35
- rheological and extrusion force analysis, finding (autoclaved gel with catechin 0.1%): degradation of the gel
- appearance of the gel (before autoclaving): clear and slightly orange
- ΔTan δ (before autoclaving): 0.008
- ΔpH (before autoclaving): −0.11
